The entries are a selection whose mix differs from that of the whole data set. Active and inactive are the calls of the source.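 How the source made its calls: active means inhibition above the mean inhibition of all tested compounds plus 3 SD (cut at about 17% in these data); inactive means the rest.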

One may read the inhibition as the change of the read-out against control, counted positive when it falls.

This assay concerns the target Troponin I, cardiac muscle (Homo sapiens) + Troponin T, cardiac muscle (Homo sapiens) + Troponin C, slow skeletal and cardiac muscles (Homo sapiens) (UniProt P19429+P45379+P63316). The assay is described as follows: cardiac RTF calcium sensitivity inhibitors, primary screen, biochemical, IANBD-TnC fluorescence, EC70 calcium (AID 493244).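 Further: assay run at fixed EC70 calcium of 1.6 mM.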 Conditions: IANBD-labeled cardiac RTF, Ca2+ fluorescence; at 7.15 µM; stronger effect = higher value.
For the compound `O=P(Nc1nc2ccc(Cl)cc2s1)(c1ccccc1)c1ccccc1`, the inhibition was inactive: 4.9%. To `O=C(O)c1ccccc1[As](=O)(O)O` belongs inactive: 1.09%; to `CC(=O)Nc1ccc([As](=O)(O)O)cc1`, inactive: -14.8%; to `CCCC1OP(N)(=O)OCC1CC` (stereo unspecified), inactive: 0.3%.

On to `CCOP(=O)(Nc1ccccc1)OCC`, for which the inhibition is inactive: -19%. With `Cc1cc(SC(NC(=O)c2ccc(F)cc2)C(Cl)(Cl)Cl)ncn1` (stereo unspecified), the inhibition was inactive: 2.72%. For `CN(C(=O)Cc1ccc(Cl)c(Cl)c1)[C@H]1CCCC[C@@H]1N1CCCC1` the value was inactive: -4.78%; for `Cc1ccc(NP(=O)(Oc2ccccc2F)Oc2ccccc2F)nc1`, inactive: -0.45%; for `Nc1cccc2ccc([As](=O)(O)O)cc12`, inactive: -3.61%. To `CCN(N=Nc1nonc1N)c1nonc1N` belongs inactive: 2.69%. For `CN(C(=O)Cc1ccc(Cl)c(Cl)c1)[C@H]1CCCC[C@H]1N1CCCC1` the value was inactive: 6.56%; for `Cc1ccc(N/C(=N/P(=O)(N2CCOCC2)N2CCOCC2)N2CCOCC2)cc1`, inactive: -6.79%; for `NC(=O)c1cc([N+](=O)[O-])cc([N+](=O)[O-])c1N`, inactive: 0.61%. Regarding `Clc1ccc(Cl)c(NC2=NCC(CBr)S2)c1` (stereo unspecified), the inhibition was inactive: -2.22%. To `CN1CCCC(OC(=O)C(c2ccccc2)c2ccccc2)C1` (stereo unspecified) belongs inactive: -4.74%; to `COc1ccccc1OP(=O)(Nc1ccc(C)cn1)Oc1ccccc1OC`, inactive: 10.4%.

As for `Oc1ccccc1CNc1ccccn1`, the inhibition was inactive: -1.8%. On to `O=C(NC(Sc1ccncn1)C(Cl)(Cl)Cl)c1ccccc1` (stereo unspecified), for which the inhibition was inactive: -3.82%.

Regarding `CC(C)CC(=O)NC(Sc1ccc(Cl)cc1)C(Cl)(Cl)Cl` (stereo unspecified), the inhibition was inactive: 2.69%. To `Nc1cc(N)c2nonc2c1[N+](=O)[O-]` belongs inactive: 3.25%; to `COc1ccc(C2=NCC(CBr)S2)cc1` (stereo unspecified), inactive: -3.98%. To `Cc1ccc(NP(=O)(Oc2ccccc2)Oc2ccccc2)nc1` belongs inactive: -11%; to `O=[N+]([O-])c1cc([N+](=O)[O-])c(CCNc2ccccc2)c([N+](=O)[O-])c1`, inactive: -11.4%. For `CCc1nc2c(n1)c1c(non1O)c1c2no[n+]1[O-]` the value was inactive: -7.46%.

For the compound `CC(=O)N1C2C3N(C(C)=O)C1C1N(C(C)=O)C(C(N1C(C)=O)N3C(C)=O)N2C(C)=O`, the inhibition was inactive: -9.55%. To `O=[N+]([O-])c1cccc2n[nH]nc12` belongs inactive: -5.59%; to `CCN(/C(=N/P(=O)(N1CCOCC1)N1CCOCC1)N1CCOCC1)c1ccc(OC)cc1`, inactive: 3.09%. For `Nc1ccc([As](=O)(O)c2ccc(N)cc2)cc1` the value was inactive: 4.14%; for `C[N+]1=C2C=CC=CC=C2SC12C([N+](=O)[O-])=CC([N+](=O)[O-])=C[C-]2[N+](=O)[O-]` (stereo unspecified), inactive: 1.95%; for `CC1CCN(C(=O)Oc2c(Cl)cc(Cl)c3cccnc23)CC1`, inactive: 6%. For `CC(C)=N/N=C(\N)N[N+](=O)[O-]`, the inhibition was inactive: 8.27%. For `CN(C)C(=O)OCCc1n(C)cc[n+]1C` the value was inactive: -22.4%.

For the compound `O=P1(N(CCCl)CCCl)OCCCS1` (stereo unspecified), the inhibition is inactive: 0.33%. To `O=C(Nc1cc([As](=O)(O)O)ccc1O)c1ccccc1` belongs inactive: -7.53%; to `O=[N+]([O-])c1ncn(CCn2ncnc2[N+](=O)[O-])n1`, inactive: -0.9%; to `CC(C)(C)C(=O)NC(Sc1ccncn1)C(Cl)(Cl)Cl` (stereo unspecified), inactive: -8.03%. For `O=C(O)CNc1ccc([As](=O)(O)O)cc1` the value was inactive: -5.03%; for `O=[N+]([O-])c1cccc(NC2=NCC(CBr)S2)c1` (stereo unspecified), inactive: -0.37%.

With `COC(=O)C1(C)COP(=O)(Nc2ccccc2)OC1` (stereo unspecified), the inhibition is inactive: -3.85%. With `CN(C)C1(CNC(=O)c2ccc(Cl)c(S(N)(=O)=O)c2)CCCCC1`, the inhibition was inactive: 3.91%. To `O=P(Nc1ccccn1)(c1ccc(Br)cc1)c1ccc(Br)cc1` belongs inactive: 1.63%. For the compound `COc1ccc(N)c([N+](=O)[O-])c1[N+](=O)[O-]`, the inhibition is inactive: 1.41%. To `O=P(Nc1nc2ccccc2s1)(c1ccccc1)c1ccccc1` belongs inactive: 3.56%; to `C[C@H]1OP(=O)(Oc2ccccc2)[C@H](O)[C@H](O)[C@H]1N=[N+]=[N-]` (stereo partly specified), inactive: -3.05%. Take `O=[As](O)(c1ccccc1)c1ccc(O)cc1`: the inhibition is inactive: 6.31%.

Regarding `CC(=O)NC(SC(=S)N(C)C)C(Cl)(Cl)Cl` (stereo unspecified), the inhibition was inactive: -3.82%. With `O=[N+]([O-])c1ncn(CCn2cnc([N+](=O)[O-])n2)n1`, the inhibition was inactive: -11%. Turning to `O=[N+]([O-])c1ccc(O)c(/C=N/Nc2ccc([N+](=O)[O-])cc2[N+](=O)[O-])c1`, the inhibition was inactive: -11.9%. To `O=C(OC1CN2CCC1CC2)c1cccc(Cl)c1` (stereo unspecified) belongs inactive: -2.24%; to `Nc1ccc([As](=O)(O)c2ccc([N+](=O)[O-])cc2)cc1`, inactive: -5.48%. To `C(Cc1nn[nH]n1)Cc1nn[nH]n1` belongs inactive: -2.42%; to `O=P(Nc1nccs1)(c1ccccc1)c1ccccc1`, inactive: -19.8%. To `CC(C)C(=O)NC(Sc1ccccc1)C(Cl)(Cl)Cl` (stereo unspecified) belongs inactive: -5.47%; to `c1nnnn1CCn1cnnn1`, inactive: -3.65%. For `O=P1(Nc2nc3ccc(Cl)cc3s2)COc2ccccc2O1` (stereo unspecified), the inhibition was inactive: -0.53%. To `CCOc1ccc(C2=NCC(CBr)S2)cc1` (stereo unspecified) belongs inactive: 8.3%. To `CC(C)(C)C(=O)NC(Sc1ccccc1)C(Cl)(Cl)Cl` (stereo unspecified) belongs inactive: -12.2%; to `CCc1cc(O)c([N+](=O)[O-])c(C)c1[N+](=O)[O-]`, inactive: -4.23%; to `Cc1ccccc1CN(C)C(=O)COC(=O)C(O)(c1ccccc1)c1ccccc1`, inactive: 1.89%. To `C[C@@H]1C=CCP(=O)(Oc2ccccc2)O1` (stereo partly specified) belongs inactive: 9.38%; to `C[C@H]1OP(=O)(Oc2ccccc2)C[C@@H]2O[C@@H]21` (stereo partly specified), inactive: -11.4%; to `N#C/C(=C\c1ccc(N(CCBr)CCBr)cc1)C(N)=O`, inactive: 2.92%.

For `CC(=O)c1ccc(N2CC2c2ccncc2)cc1` (stereo unspecified), the inhibition was inactive: -5.49%. To `COC(=O)C1(C)COP(=O)(NCc2ccccc2)OC1` (stereo unspecified) belongs inactive: -2.15%.

Consider `CC(=O)Nc1ccc([As](=O)(O)O)c(O)c1`, for which the inhibition is inactive: 5.91%. To `CC(=O)Nc1ccc(Oc2c([N+](=O)[O-])cc([N+](=O)[O-])cc2[N+](=O)[O-])cc1` belongs inactive: 1.78%.

Source of the values: PubChem BioAssay AID493244 (The Scripps Research Institute Molecular Screening Center, 2011).
